## Curated experimental data: melting point values

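OPERA's authors assembled the values from existing databases and did not measure them anew. A listed value is a point estimate from one report or more. Method, purity and exact conditions of the single measurements are not given. Where a salt, mixture or single isomer is drawn, the source does not say that exactly this form was tested. Unmarked limits or estimates from the upstream databases cannot be ruled out.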

The melting point is given in degrees Celsius. The databases behind each value are named after "via".

The entry for CC(C)(C)n1ncc(C#N)c1N [5-amino-1-tert-butyl-1H-pyrazole-4-carbonitrile] lists MP 91 °C (via OCHEM).
The entry for Cc1ccn(NC=O)n1 [1-Carbamoyl-3-methylpyrazole] lists MP 125 °C (via OCHEM).
The entry for CCSC(=O)NCCC[NH+](C)C.[Cl-] [Prothiocarb hydrochloride [ISO]] lists MP 120 °C (via OCHEM).
The entry for Nc1ccnn1CC1CCCCC1 [1-(cyclohexylmethyl)-1H-pyrazol-5-amine] lists MP 60 °C (via OCHEM).
The entry for O=[N+]([O-])c1cc(S(=O)(=O)Cl)ccc1O [4-Hydroxy-3-nitrobenzenesulfonyl chloride] lists MP 53 °C (via OCHEM).
The entry for CCCCCCCCCCCCCC(=O)N(C)CC(=O)[O-].[Na+] [Glycine, N-methyl-N-(1-oxotetradecyl)-, sodium salt] lists MP 150.6 °C (via eChemPortal).
The entry for O=c1nc(Cc2ccccc2)[nH]c2ccccc12 [Glycosminine] lists MP 255 °C (via PubChem).
The entry for O=C(O)Cc1cnn(-c2ccccc2)c1 [(1-Phenyl-1H-pyrazol-4-yl)acetic acid] lists MP 108 °C (via OCHEM).
The entry for Cc1cc(C)n(-c2ccccc2N)n1 [2-(3,5-dimethyl-1H-pyrazol-1-yl)aniline] lists MP 82 °C (via OCHEM).
The entry for OCc1cnn(-c2ccccc2)c1 [(1-phenyl-1H-pyrazol-4-yl)methanol] lists MP 65 °C (via OCHEM).
The entry for CCc1ccc(-c2csc(N)n2)cc1 [4-(4-ethylphenyl)-1,3-thiazol-2-amine] lists MP 121 °C (via OCHEM).
The entry for Cc1c(NC(=S)Nc2c(C)n(C)n(-c3ccccc3)c2=O)c(=O)n(-c2ccccc2)n1C lists MP 94 °C (via OCHEM).
The entry for CNC(=O)c1ccc(C)c(N)c1 [3-Amino-N,4-dimethylbenzamide] lists MP 168 °C (via OCHEM).
The entry for CC=Cc1ccc(OCC(=O)O)c(OC)c1 [Acetic acid, [2-methoxy-4-(1-propenyl)phenoxy]-] lists MP 118 °C (via OCHEM).
The entry for CC(C)(C)NS(=O)(=O)c1ccc(C(=O)O)cc1 [4-[(tert-butylamino)sulfonyl]benzoic acid] lists MP 183 °C (via OCHEM).
The entry for Clc1ncnc2c1oc1ccccc12 [4-chlorobenzofuro[3,2-d]pyrimidine] lists MP 145 °C (via OCHEM).
The entry for COc1ccc(-c2cc(C(=O)O)c3ccccc3n2)cc1OC [2-(3,4-Dimethoxyphenyl)quinoline-4-carboxylic acid] lists MP 235 °C (via OCHEM).
The entry for Nc1nnc(-c2cccc(Br)c2)o1 [5-(3-bromophenyl)-1,3,4-oxadiazol-2-amine] lists MP 210 °C (via OCHEM).
The entry for COc1ccc2c(c1)CCCC2=CC[C@@]1(C)C(=O)CC[C@@H]1O lists MP 112 °C (via eChemPortal).
The entry for CCN(CC)S(=O)(=O)c1ccc(O)c(N)c1 [3-amino-N,N-diethyl-4-hydroxybenzenesulfonamide] lists MP 75 °C (via OCHEM).
The entry for COc1ccc(S(N)(=O)=O)cc1OC [3,4-dimethoxybenzenesulfonamide] lists MP 136 °C (via OCHEM).
The entry for O=C(O)c1ccccc1NS(=O)(=O)c1ccc(Br)cc1 [Benzoic acid, 2-(((4-bromophenyl)sulfonyl)amino)-] lists MP 226 °C (via OCHEM).
The entry for N#CCC(=O)NCCc1ccccc1 [2-cyano-N-(2-phenylethyl)acetamide] lists MP 92 °C (via OCHEM).
The entry for Cc1nc(Cl)c2c(-c3ccccc3)csc2n1 [4-chloro-2-methyl-5-phenylthieno[2,3-d]pyrimidine] lists MP 171 °C (via OCHEM).
The entry for O=C(CCl)NC(=O)Nc1ccccc1 [N-(anilinocarbonyl)-2-chloroacetamide] lists MP 162 °C (via OCHEM).
The entry for CC[C@]1(CC=C2CCCc3cc(OC)ccc32)C(=O)CC[C@@H]1O lists MP 91 °C (via eChemPortal).
The entry for COc1ccc(Cl)cc1N1CC(C(=O)O)CC1=O (configuration not stated) lists MP 152 °C (via OCHEM).
The entry for Oc1ccc(-n2cnnn2)cc1 [4-Tetrazol-1-yl-phenol] lists MP 210 °C (via OCHEM).
The entry for O=C(O)c1c(Cl)nc2sccn12 [6-Chloro-imidazo[2,1-b]thiazole-5-carboxylic acid] lists MP 182 °C (via OCHEM).
The entry for CC(=O)Nc1cccc(C#N)c1 [N-(3-cyanophenyl)acetamide] lists MP 134 °C (via OCHEM).
The entry for Nc1ccnn1C1CCCCC1 [1-Cyclohexyl-1H-pyrazol-5-amine] lists MP 81 °C (via OCHEM).
The entry for CC(=O)C=C(C)N [4-Amino-3-penten-2-one] lists MP 38.5 °C (via OCHEM).
The entry for CC(C)(C)P(=O)(O)O [tert-Butylphosphonic acid] lists MP 192 °C (via OCHEM).
The entry for NCc1ccccn1 [2-Pyridinemethanamine] lists MP 81 °C (via OCHEM).
The entry for O=C(O)CCNS(=O)(=O)c1ccc(Br)cc1 [N-(4-Bromobenzene-1-sulfonyl)-beta-alanine] lists MP 162 °C (via OCHEM).
The entry for COc1ccccc1/C=C/C(=O)O [(2E)-3-(2-Methoxyphenyl)-2-propenoic acid] lists MP 184.5 °C (via OCHEM).
The entry for CCNC(=S)n1ncc(C(=O)OCC)c1N lists MP 94 °C (via OCHEM).
The entry for O=Cc1ccc(OCc2ccc(Cl)cc2)cc1 [4-[(4-Chlorobenzyl)oxy]benzaldehyde] lists MP 73 °C (via OCHEM).
The entry for COc1c(F)cc(N)cc1F [3,5-Difluoro-4-methoxyaniline] lists MP 78.5 °C (via OCHEM).
The entry for N#CCC(=O)N1CCN(c2ccccc2)CC1 [3-Oxo-3-(4-phenylpiperazin-1-yl)propanenitrile] lists MP 133 °C (via OCHEM).
The entry for CCOC(=O)c1c(-c2ccccc2)oc2ccc(O)cc12 [5-Hydroxy-2-phenyl-benzofuran-3-carboxylic acid ethyl ester] lists MP 153 °C (via OCHEM).
The entry for O=Cc1cn(-c2ccccc2)nc1-c1cccnc1 [1-Phenyl-3-(pyridin-3-yl)-1H-pyrazole-4-carbaldehyde] lists MP 111 °C (via OCHEM).
The entry for O=C(O)C1(c2ccc(Br)cc2)CC1 [1-(4-Bromophenyl)cyclopropane-1-carboxylic acid] lists MP 156 °C (via OCHEM).
The entry for CNCC(O)C(O)C(O)C(O)CO.CNCC(O)C(O)C(O)C(O)CO.O=C([O-])CN(CCN(CC(=O)[O-])CC(=O)[O-])CCN(CC(=O)[O-])C(COCc1ccccc1)C(=O)[O-].[Gd+3].[H+].[H+] (configuration not stated) [Gadobenate dimeglumine] lists MP 124 °C (via PubChem).
The entry for Cl.Cl.N=C(N)Nc1nc(CSC(=N)N)cs1 lists MP 185 °C (via eChemPortal).

A selection of 5 entries from above:

O=c1nc(Cc2ccccc2)[nH]c2ccccc12 [Glycosminine] is reported with MP 255 °C (via PubChem).
O=[N+]([O-])c1cc(S(=O)(=O)Cl)ccc1O [4-Hydroxy-3-nitrobenzenesulfonyl chloride] is reported with MP 53 °C (via OCHEM).
Cc1cc(C)n(-c2ccccc2N)n1 [2-(3,5-dimethyl-1H-pyrazol-1-yl)aniline] is reported with MP 82 °C (via OCHEM).
CC(C)(C)NS(=O)(=O)c1ccc(C(=O)O)cc1 [4-[(tert-butylamino)sulfonyl]benzoic acid] is reported with MP 183 °C (via OCHEM).
CCOC(=O)c1c(-c2ccccc2)oc2ccc(O)cc12 [5-Hydroxy-2-phenyl-benzofuran-3-carboxylic acid ethyl ester] is reported with MP 153 °C (via OCHEM).

Source: data files of OPERA 2.9 (Mansouri et al.), github.com/kmansouri/OPERA.